Source: patent publication US9951055B2, “Thiazole-based inhibitors of scavenger receptor BI” (THE BROAD INSTITUTE, INC., priority 2012, dated 2018)

The chains behind the UniProt entries cited, without tags or fusion partners.
UniProt Q61009, whole entry: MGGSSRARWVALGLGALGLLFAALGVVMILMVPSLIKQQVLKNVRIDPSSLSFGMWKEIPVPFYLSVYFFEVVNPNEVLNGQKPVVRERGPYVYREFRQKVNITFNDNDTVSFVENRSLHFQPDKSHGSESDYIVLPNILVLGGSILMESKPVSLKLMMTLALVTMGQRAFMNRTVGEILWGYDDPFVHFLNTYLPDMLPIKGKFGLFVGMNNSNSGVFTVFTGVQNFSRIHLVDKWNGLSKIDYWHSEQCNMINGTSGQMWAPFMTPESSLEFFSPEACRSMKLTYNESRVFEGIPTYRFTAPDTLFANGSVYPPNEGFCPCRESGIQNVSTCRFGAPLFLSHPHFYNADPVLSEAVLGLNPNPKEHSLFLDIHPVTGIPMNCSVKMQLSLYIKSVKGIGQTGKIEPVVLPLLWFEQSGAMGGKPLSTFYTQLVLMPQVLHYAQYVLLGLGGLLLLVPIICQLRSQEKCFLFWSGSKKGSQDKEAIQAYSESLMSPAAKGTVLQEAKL

Target: murine SR-BI (Mus musculus, UniProt Q61009)
Experiment: DiI-HDL uptake assay (primary assay)
Conditions: read-out: IC50, primary assay (DiI-HDL uptake / HDL-mediated lipid uptake); compound present during DiI-HDL exposure

SMILES	IC50 [nM]
CC(=O)N1CCc2cc(-c3nc(NC(=O)c4cccc(OC(F)(F)F)c4)sc3C)ccc21	40
CCC(=O)N1CC(C)(C)c2cc(-c3csc(NC(=O)c4cc(OC)cc(OC)c4)n3)ccc21	8
CCC(=O)Nc1ccc(-c2csc(NC(=O)c3cccc(OC)c3)n2)cc1	66
